Target: Cytochrome P450 2C9 (Homo sapiens, UniProt P11712)

Amino acid sequences for entries named in this document (tags omitted).
UniProt P11712, whole entry: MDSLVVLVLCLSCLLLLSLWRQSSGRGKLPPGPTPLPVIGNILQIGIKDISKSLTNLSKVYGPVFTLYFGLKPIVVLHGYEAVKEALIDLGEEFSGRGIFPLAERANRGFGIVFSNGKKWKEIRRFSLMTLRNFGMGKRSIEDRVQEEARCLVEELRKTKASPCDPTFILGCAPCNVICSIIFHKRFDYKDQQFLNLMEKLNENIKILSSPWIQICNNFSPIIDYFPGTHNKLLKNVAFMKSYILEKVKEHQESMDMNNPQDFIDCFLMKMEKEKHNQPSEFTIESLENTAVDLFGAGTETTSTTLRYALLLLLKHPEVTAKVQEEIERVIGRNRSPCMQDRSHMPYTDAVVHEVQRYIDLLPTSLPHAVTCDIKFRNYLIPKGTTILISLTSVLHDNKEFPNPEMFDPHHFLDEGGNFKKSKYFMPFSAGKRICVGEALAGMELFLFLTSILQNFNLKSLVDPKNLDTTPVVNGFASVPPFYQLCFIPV

IC50: 7 µM
Compound: O=C1c2nc3ccccc3n2CCN1CCCCOc1ccc(OC(F)(F)F)cc1

From ChEMBL document CHEMBL4715841, “Discovery of dihydropyrazino-benzimidazole derivatives as metabotropic glutamate receptor-2 (mGluR2) positive allosteric modulators (PAMs)” (Eur J Med Chem, 2020)
